Data from patent US20120115880A1.

Biological target: p53 (endogenous wild-type p53 of human retinoblastoma cells and human fetal retinal cells) (human) (UniProt P04637)
Assay: cell-based or functional assay

luciferase activity of the p53 reporter construct PG13 in retinoblastoma (Y79) cells: 11 fold
Substance: MDM2 (ectopically expressed from an MDM2 cDNA vector in Y79 cells)
